Entries after “also recorded” stand apart in the source; their conditions may differ.

The values below come from patent publication US20040019027A1, “Method of treating cerebrotendinous xanthomatosis” (priority 2002, published 2004).

The target in the series is T1, human PXR (Homo sapiens, UniProt O75469).
T1 sequence (O75469 107-434 limits assumed): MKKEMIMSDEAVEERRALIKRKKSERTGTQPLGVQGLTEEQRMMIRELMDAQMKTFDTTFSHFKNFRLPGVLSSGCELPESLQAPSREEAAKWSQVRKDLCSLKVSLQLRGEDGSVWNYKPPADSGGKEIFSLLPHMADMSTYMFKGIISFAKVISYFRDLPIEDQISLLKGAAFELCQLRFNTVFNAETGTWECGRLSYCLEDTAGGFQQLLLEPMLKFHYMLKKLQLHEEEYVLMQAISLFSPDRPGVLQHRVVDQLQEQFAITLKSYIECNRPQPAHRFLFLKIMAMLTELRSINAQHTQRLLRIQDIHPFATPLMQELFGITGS
The experiment in a line: GAL-human PXR luciferase reporter gene assay in transfected CV-1 cells. Conditions: 2.5 μM hyperforin, 10 μM other ligands, FIG. 8(a). The source says:
For mouse PXR, the data are plotted as percent of maximal foldactivation achieved with pregnenolone-16α-carbonitrile (PCN). […] Experimental conditions were as in FIG. 8(a) using human PXR.
5β-cholestane-3α, 7α, 12α-triol and 5β-cholestane-3α, 7α, 12α, 25-tetrol are endogenous CYP3A substrates in both human and mouse liver. Furster & Wikvall, Identification of CYP3A4 as the Major Enzyme Responsible for 25-Hydroxylation of 5β-cholestane-3α, 7α, 12α-triol in Human Liver Microsomes, Biochim. Biophys. […] Briefly, a cytomegalovirus expression vector was used to express Gal-PXR fusion proteins. […] Reporter plasmids were constructed by synthesizing three copy response elements that bind to the Gal4 DNA biding domain and subcloned into the transcriptional regulatory region of luciferase reporter gene. β-galactosidase expression vector pCH110, used as internal control, was obtained from Amersham Pharmacia Biotech. CV-1 cells were plated in 96-well plates at a density of 20,000 cells per well and maintained in DMEM supplemented with 10% charcoal/dextran treated calf bovine serum. […] Reporter gene expression was normalized to the b-galactosidase transfection control and expressed as relative light units per OD per minute of β-galactosidase activity or fold induction over solvent control.
(In general: A reporter such as luciferase makes a cellular process visible.)

hyperforin: the “activation of GAL-human PXR (in words)” value is recorded as “fully activated; also recorded: maximally activates”.
